Series [1] is described as follows: NINCDS Subcutaneous Pentylenetetrazol (Metrazol) Seizure Threshold Test (scMet). The class given is in vivo, mice. Conditions: secondary evaluation. As for the experimental part: (§1) 1. Neurological Activity Tests. […] Compounds were evaluated for anticonvulsant activity in two seizure models, the maximal electroshock seizure (MES) test and the subcutaneous pentylenetetrazol (Metrazol) seizure threshold (scMet) test.
Subcutaneous Pentylenetetrazol (Metrazol) Seizure Threshold Test (scMet) produces threshold (clonic) seizures. Pentylenetetrazol is administered subcutaneously as a threshold 0.5% solution (in 0.9% sodium chloride) in a loose fold of skin on the back of the neck in a dose of 85 mg/kg. […] Metrazol is given 10 minutes before the beginning of the test to allow for the delay in onset of Metrazol action. The animal is observed for 30 minutes. Failure to observe even a threshold seizure (a single episode of clonic spasms at least 5 seconds in duration) is defined as protection and indicates anticonvulsant activity in the test compound. These two methods of seizure provocation reliably elicit well-characterizied seizure phenomena.
(§2) The ability of a compound to prevent maximal electroshock seizures is believed to correlate with its ability to prevent the spread of seizure discharge through neural tissue. […]
(§3) In the Secondary Evaluation, median effective doses (ED50) are determined in the MES, scMet and Rotorod assays using the procedures defined in Pharmacology, 95, 99-113 (1949). […]

The nature of series [2]: NINCDS Maximal Electroshock Seizure Test (MES). The series is classed as in vivo, mice. The conditions noted are these: secondary evaluation. As for the experimental part: as §1
The Maximal Electroshock Seizure Test was performed according to the method described by Swinyard and coworkers,* wherein a drop of 0.9% saline is instilled in each eye prior to application of corneal electrodes. Seizures are elicited with a 50 Hz alternating current of 50 mA (5 to 7 times that necessary to elicit minimal electroshock seizures) delivered for 0.2 sec via corneal electrodes. This stimulus will produce a maximal seizure in all normal mice. The maximal seizure typically consists of a short period of initial tonic flexion and a prolonged period of hind limb tonic extension, followed by terminal clonus. The seizure lasts about 22 seconds. Abolition of the hind limb tonic extensor component of the seizure is defined as protection and indicates anticonvulsant activity in the test compound.
as §2, §3
In general terms: The maximal electroshock test induces tonic seizures with an electrical stimulus.

A short description of series [3]: Neuropharmacological Profile (NPP): general CNS observational screen (depression, righting reflex, ataxia). As for the experimental part:
Representative compounds according to the present invention were tested for central nervous system activity by Pharmakon Laboratories of Scranton, Pennsylvania. The battery of general observational procedures used is referred to herein as a Neuropharmacological Profile (NPP). Additionally, representative compounds were tested in the Anticonvulsant Screening Project of the National Institutes of Neurological and Communicative Disorders and Stroke (NINCDS) at the University of Utah under the direction of Dr. Ewart A. Swinyard.
The procedures for the determination of a neuropharmacological profile involved white male mice of the Carworth Farm Strain CF-1 weighing 18 to 22 grams. […] Intraperitoneal injections were administered in logarithmic progression and sequentially. The dose levels employed routinely were 10, 30, 100 and 300 mg/kg, using four male mice at each dose level. Since this test was conducted in a sequential manner, the first does administered was at 300 mg/kg. […] Approximately thirty-eight signs and symptoms of pharmacological activity can be identified.
The animals were observed continously for one hour and, if no signs of pharmacological or toxicological activity were present at the end of the first hour, they were intermittently checked for activity every fifteen minutes thereafter for two consecutive hours. […] The animals were observed and signs and symptoms of pharmacological activity were recorded continuously until no further symptoms developed and until the symptoms that appeared were no longer present. […] Routinely, the number of animals alive at the end of the forty-eight hour observation period was recorded and the LD50 estimated. […]
Since this is a general CNS screening procedure, only peak effects were recorded. Certain measures of behavior and neurological deficit were scored in terms of intensity of effect, while most others were determined on an all or none basis. […] The compounds were also evaluated for anticonvulsant activity by using the maximal electroshock seizure (MES) test. […]
At the termination of the test, the results were recorded and tabulated. […]

[4] abbreviates: at 100 mg/kg, i.p., mice, score 0-8.

Consider `Cc1ccccc1-n1c(C)nc2ccccc2c1=O` [methaqualone, 2-methyl-3-o-tolyl-4(3H)-quinazolinone, reference compound], for which the “PI scMet (Protective Index = TD50/ED50)” value in series [1] worked out at 1.64. Further, the “PI MES (Protective Index = TD50/ED50)” value in series [2] is 1.05. Also, the muscle relaxant properties entry in series [3] (NPP summary) was “not exhibited”. Further, in series [3] (setting [4]), the Ataxia was found to be 8 and the Righting reflex was 8.

The values above are taken from patent US4183931A, “2-Ketoalkyl-4(3H)-quinazolinones” (Research Corporation, priority 1977, dated 1980).
